iPSC survival up: hiPSC single-cell survival enhancement; 360,000 compounds, 0.044% hits; ATPlite luminescence; 100% = ROCK inhibitor wells, 0% = DMSO; survival enhancement, % at 20 µM; in the data active = survival enhancement above about 18%;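 note: cells exposed to compounds for 16 hours before the ATP read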
PGC1a acetyl inh: lowers PGC1a acetylation signal in U2OS cells | AlphaScreen anti-acetyl-lysine; with virally co-expressed GCN5 acetyltransferase | inhibition, % at 15.6 µM | 350,000 compounds, 0.17% hits | AID 651687;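 active = every replicate shows inhibition of at least 40%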
C2C12 statin: suppression of simvastatin myotoxicity. C2C12 myotubes + simvastatin, ATP luminescence, 48 h; scaled: DMSO 0, geranylgeraniol control 100. rescue of ATP level, % at 7.49 µM. 330,000 compounds, 0.78% hits;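 active = mean ATP rescue above about 67%, or every replicate alone reaching that limit, limit read from the data, passing the limit was not always enough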;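 note: myotubes were challenged with 10 µM simvastatin during compound exposure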
FN deposit inh: fibronectin deposition inhibition; 350,000 compounds, 0.086% hits; inhibition, % at 12.6 µM; AH1F fibroblasts, Alexa488-fibronectin deposition fluorescence, overnight;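 active = mean inhibition across replicates of 30% or more, regardless of how many single replicates reach that level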
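Material – AH1F fibroblast monolayer, labelled fibronectin deposition · Reagent – labelled fibronectin 24 nM · Timing – 1 h adhesion, overnight exposure · Measured by – fluorescence at 485 nm excitation, 525 nm emission · Read-out – inhibition of fibronectin deposition signal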
Yeast UUG start-1: alters start codon recognition fidelity in yeast. S. cerevisiae UUG-firefly luciferase reporter, luminescence/redox ratio. activity score, % at 18.7 µM. 0.13% of 350,000 active. AID 602363;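 active = replicate mean at a twofold rise or more, about +100% in these data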;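 also: firefly luciferase made from a UUG start codon reports start codon fidelity; reporter light over untreated wells divided by growth signal over untreated wells; some hits fall short of that in this replicate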
Yeast UUG start-2: alters UUG start codon use in yeast; shares compounds with Yeast UUG start-1; S. cerevisiae UUG-start firefly luciferase, luminescence, 4 h; 100% means double the DMSO signal; activation, % at 38 µM; 540 tested, under 10 active;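 active = signal increase whose fitted curve reaches an absolute level of 40 at a concentration under 10 µM; inactive = activity opposite to the expected increase, or the rest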
Hits are given with their value; . = inactive; / = no result. In the library only some 0.91% were active in any assay of this set; here they are far more common.

SMILES	iPSC survival up	PGC1a acetyl inh	C2C12 statin	FN deposit inh	Yeast UUG start-1	Yeast UUG start-2
O=C(C[C@H]1C[C@@H]2c3cc(NC(=O)C4CCOCC4)ccc3O[C@@H]2[C@H](CO)O1)NC1CCCC1	/	.	.	.	102	.
O=C(C[C@@H]1C[C@H]2c3cc(NC(=O)C4CCC4)ccc3O[C@H]2[C@H](CO)O1)NCC1CC1	/	.	.	.	104	.
O=C(C[C@@H]1C[C@H]2c3cc(NC(=O)C4CCOCC4)ccc3O[C@H]2[C@@H](CO)O1)NC1CCCC1	/	.	.	.	.	/
COCC(=O)Nc1ccc2c(c1)[C@@H]1C[C@H](CC(=O)NC3CCCCC3)O[C@H](CO)[C@@H]1O2	/	.	.	.	107	.
Cc1ccc(S(=O)(=O)Nc2ccc3c(c2)CC(=O)N([C@H](C)CO)C[C@@H](C)[C@@H](CN(C)S(=O)(=O)c2ccc(F)cc2)O3)cc1	/	.	.	/	.	/
O=C(C(=O)N1CCC(CNS(=O)(=O)c2ccc(F)c(F)c2)CC1)c1cc2ccccc2o1	/	/	/	.	/	/
O=C1c2ccccc2C(=O)c2c(Nc3ccc(CCO)cc3)ccc(O)c21	.	.	.	.	active	.
CC(C)CC#Cc1cnc2c(c1)C(=O)N([C@H](C)CO)C[C@H](C)[C@@H](CN(C)C(=O)c1cccnc1)O2	/	.	.	/	.	/
C[C@H]1CN([C@@H](C)CO)C(=O)c2cc(C#Cc3cccnc3)cnc2O[C@@H]1CN(C)C(=O)CN(C)C	/	.	.	/	.	/
COc1ccc([C@@H](OC(=O)Nc2ccc(SC)cc2)[C@@H](CCO)OC)cc1O	/	.	/	/	151	.
CCC1=C(OC(=O)c2ccccc2)C(C)(C)C(c2ccccc2)OC1=O (stereo unspecified)	.	.	.	/	105	.
C[C@H]1CN([C@@H](C)CO)C(=O)c2cccc(NC(=O)C3CCCCC3)c2O[C@H]1CN(C)Cc1ccccc1	/	/	.	/	.	/
CC1(C#CC[N+]2(C)CCCCC2)CCC2C(O1)c1ccccc1OC2(C)C (stereo unspecified)	.	.	/	.	active	.
CC1(C(O)(C#CC[N+]2(C)CCCCC2)c2ccccc2)CCCC1 (stereo unspecified)	.	.	.	.	/	/
CC1Sc2ccc(C(=O)N(CCc3ccccc3)Cc3ccccc3)cc2NC1=O (stereo unspecified)	.	.	.	.	103	.
COc1cccc(-c2ccc3c(c2)O[C@@H](CN(C)Cc2ccncc2)[C@@H](C)CN([C@H](C)CO)S3(=O)=O)c1	/	.	.	.	166	.
CC(=O)N(C)C[C@@H]1Oc2cc(-c3cccc(C#N)c3)ccc2S(=O)(=O)N([C@@H](C)CO)C[C@H]1C	/	.	.	.	.	/
CC(=O)N(C)C[C@@H]1Oc2cc(-c3cccc(C#N)c3)ccc2S(=O)(=O)N([C@H](C)CO)C[C@H]1C	/	.	.	.	66	.
CC(=O)N(C)C[C@@H]1Oc2cc(Br)ccc2S(=O)(=O)N([C@@H](C)CO)C[C@@H]1C	/	.	.	.	63	.
COc1cccc(-c2ccc3c(c2)O[C@H](CN(C)Cc2cncnc2)[C@@H](C)CN([C@@H](C)CO)S3(=O)=O)c1	/	.	.	.	.	/
C[C@H](CO)N1C[C@H](C)[C@H](CN(C)C(=O)CN(C)C)Oc2cc(-c3ccccc3)ccc2S1(=O)=O	/	.	.	.	35	.
CO[C@@H]1CN(C)C(=O)c2cc(NS(=O)(=O)c3c(C)noc3C)ccc2OC[C@@H](C)NC[C@@H]1C	/	.	.	.	/	/
C[C@H](CO)N1C[C@H](C)[C@H](CN(C)C(=O)Nc2ccc(C(F)(F)F)cc2)Oc2ccc(NC(=O)CCCCCC(=O)Nc3ccccc3N)cc2C1=O	/	.	/	.	/	/
C[C@H]1CN([C@@H](C)CO)S(=O)(=O)c2ccc(-c3cccc(C(=O)N(C)C)c3)cc2O[C@H]1CN(C)C(=O)Nc1ccc(F)cc1	/	.	.	.	.	/
C[C@H]1CN([C@@H](C)CO)S(=O)(=O)c2ccc(-c3cccc(C(=O)N(C)C)c3)cc2O[C@@H]1CN(C)C(=O)Nc1ccc(F)cc1	/	.	.	.	111	.
COc1ccc(C(=O)c2cnc[nH]2)cc1OC	.	.	.	.	.	/
COc1ccc(C(=O)c2cnc[nH]2)cc1	.	.	/	.	171	.
